For two compounds, IC50 results are on record in patent US20140100184A1, “SELECTIVE INHIBITORS OF HISTONE […] DOT1L” (BAYLOR COLLEGE OF MEDICINE, priority 2012, published 2014).

By UniProt entry, the sequences of proteins in these tests, tags left out.
UniProt Q99873, whole entry: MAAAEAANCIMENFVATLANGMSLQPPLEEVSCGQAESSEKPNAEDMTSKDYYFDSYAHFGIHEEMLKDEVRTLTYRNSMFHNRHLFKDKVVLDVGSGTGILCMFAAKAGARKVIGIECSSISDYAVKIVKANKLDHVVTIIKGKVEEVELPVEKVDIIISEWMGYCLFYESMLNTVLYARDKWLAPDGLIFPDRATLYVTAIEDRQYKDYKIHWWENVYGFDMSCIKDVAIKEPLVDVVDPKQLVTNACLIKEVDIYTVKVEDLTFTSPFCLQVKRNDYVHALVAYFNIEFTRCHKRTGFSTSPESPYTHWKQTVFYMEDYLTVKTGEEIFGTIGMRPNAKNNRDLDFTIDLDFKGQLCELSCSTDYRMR

In this assay the target is PRMT1 (Homo sapiens, UniProt Q99873). The assay can be described thus: Methyltransferase inhibition assay, PRMT1. More on the design: purchased BPS Biosciences (San Diego, Calif.). The class given is biochemical.

Structures can show the parent of a compound that is named as a salt.

Turning to `Nc1ncnc2c1ncn2[C@@H]1O[C@H](CN(CCI)CC[C@H](N)C(=O)O)C(O)[C@@H]1O` (stereo partly drawn) [Compound 3, N^γ-(5′-Adenosyl)-N^γ-(2-iodoethyl)-(S)-2,4-diaminobutyric acid hydrochloride], the IC50 (usually the concentration that inhibits the measured activity by half) came out at 22 µM. For `CNc1ncnc2c1ncn2[C@@H]1O[C@H](CN(CCI)CCC[C@H](N)C(=O)O)C(O)[C@@H]1O` (stereo partly drawn) [Compound 5, N^δ-[5′-(N^6-Methyl-adenosyl)]-N^δ-(2-iodoethyl)-(S)-2,5-diaminopentanoic acid hydrochloride] the value was over 100 µM.
